Assay results published in PubChem BioAssay AID1347075 (National Center for Advancing Translational Sciences (NCATS), 2019).
“And” between values parts separate entries of the source, which are not always exact repeats. Identical values can stand only once. The list shows a part of the results, in another mix than the full data. Some of these compounds have results that are not shown, active ones among them. Results filed as inconclusive are left out. The source made the active and inactive calls. Calls follow the shape of the dose curve; as a rule, active = well fitted cell-killing curve with a large enough effect; inconclusive = small, poorly fitted or top-dose-only effect, or effect the other way; inactive = flat fitted curve, though single readings scatter.

Test: qHTS assay for MDR1-selective chemotherapeutics: Primary screen using the parental adenocarcinoma cell KB-3-1; also: nearly all actives have a fitted effect of over 60% in size
Details: KB-3-1 viability, CellTiter-Glo ATP luminescence, 72 h; at 46.1 µM (top of the series)
Text: A prime difficulty in effectively treating cancer is the development of cellular resistance to multiple structurally unrelated anticancer drugs, a phenomenon known as multidrug resistance (MDR). […] Numerous strategies to overcome P-gp-mediated MDR have been explored, including the design of drugs that evade recognition and efflux, and development of inhibitors to block efflux and restore drug accumulation. […] An alternative approach is to exploit resistance by identifying drugs that target MDR cells over the non-resistant parental cells from which they were selected. […] The development of MDR1-selective agents represents a new strategy for resolving multidrug resistance, as it remains a long-standing clinical challenge for cancer chemotherapy.
Our goal is to identify compounds that selectively kill P-gp-expressing MDR cells. We will identify MDR1-selective compounds by comparing toxicity of compounds in the screening library against parental, drug-naive (KB-3-1) adenocarcinoma cells as well as their drug-selected MDR sub-line (KB-V1). The differential toxicity of compounds against these two cell lines will be used to identify MDR1-selective compounds, whose cytotoxicity is potentiated, rather than diminished, by P-gp expression. This assay will be utilized to conduct a quantitative high-throughput screen (qHTS) in collaboration with the NIH Chemical Genomics Center to identify selective agents, and probe hits arising from the screen will be validated using secondary assays and characterized through a well-established follow-up research program. This screen was run against the entire NCGC library collection of about 400,000 compounds.
NIH Molecular Libraries Probe Production Network [MLPCN]
NIH Chemical Genomics Center [NCGC]
PI: Michael Gottesman PhD, National Cancer Institute, NIH
Briefly, 5 microL of media containing either KB-3-1 cells (columns 1-2, 4-48) are dispensed into Greiner white, treated solid-bottom 1536-well assay plates (media-only control is added to column 3). Compounds are then transferred via Kalypsys pin tool equipped with 1536-pin array (10 nL slotted pins, V&P Scientific, San Diego, CA). Following addition of compound, the plates are incubated at 37 degrees C for 72 hours. CellTiter-Glo (2.5 µL/well) is then added, and the plates are read in a ViewLux reader (Perkin-Elmer, clear luminescence filter, 1 second exposure, 1x binning) following a 10 minute incubation. All cells are dispensed in DMEM phenol-red free media containing 10% FBS.
Library plates were screened starting from the lowest and proceeding to the highest concentration. Vehicle-only plates, with DMSO being pin-transferred to columns 5-48, will be inserted uniformly at the beginning and the end of each library in order to monitor and record any shifts in the background, which can be affected by reagent dispensers or loss in enzyme activity over time. Screening data will be corrected, normalized, and concentration-effect relationships will be derived by using publicly-available NCGC, NCATS curve fitting algorithms (http://ncgc.nih.gov/pub/openhts).
% is scaled to controls: 0 for no effect and ±100 for the full control effect.

| Structure (SMILES) | activity change, negative = cytotoxic |
| --- | --- |
| Cc1ccc(C(=O)NCC2(N3CCCCC3)CCCCC2)cc1 | inactive: -4.33% |
| CN(C)C1(CNC(=O)c2ccccc2F)CCCCC1 | inactive: 6.38% |
| COc1cc(SC)ccc1C(=O)NCC1(N(C)C)CCCCC1 | inactive: 22.9% |
| CN(C)C1(CNC(=O)c2cccc(Cl)c2)CCCCC1 | inactive: -1.02% |
| CCN(CC)CC(C)C(C)OC(=O)C(O)(c1ccccc1)c1ccccc1 (stereo not given) | inactive: 4.88% |
| CC(C)N1C(=O)CC2(CCN(CCOC(=O)C(O)(c3ccccc3)c3ccccc3)CC2)C1=O | inactive: 23.3% |
| CN1[C@@H]2CC[C@H]1CC(OC(=O)C(O)(c1ccccc1)c1ccccc1)C2 (stereo not given in full) | inactive: 0.624% |
| O=C(NCC1(N2CCCCC2)CCCCC1)c1cc([N+](=O)[O-])ccc1Cl | inactive: -4.36% |
| CCOc1cccc(C(=O)NCC2(N(C)C)CCCCC2)c1 | inactive: 11.1% |
| COc1ccc(C(=O)NCC2(N(C)C)CCCCC2)cc1 | inactive: 7.8% |
| O=C(NCC1(N2CCCCC2)CCCCC1)c1cccc(Br)c1 | inactive: -14.7% |
| Cc1cc(C(=O)NCC2(N3CCCCC3)CCCCC2)ccc1[N+](=O)[O-] | inactive: 11.1% |
| CCN1CCCC(OC(=O)C2(O)c3ccccc3C=Cc3ccccc32)C1 (stereo not given) | inactive: 4.15% |
| O=C(NCC1(N2CCCCC2)CCCCC1)c1cc(F)c(F)cc1Cl | inactive: 4.08% |
| C=CCN1CCN(CCOC(=O)C(O)(c2ccccc2)c2ccccc2)CC1 | inactive: 1.3% |
| CCCCOc1ccccc1C(=O)NCC1(N(C)C)CCCCC1 | inactive: 1.73% |
| CN(C)C1CCCC1OC(=O)C(O)(c1ccccc1)c1ccccc1 (stereo not given) | inactive: 13.6% |
| CN(C)c1ccc(C(=O)NCC2(N(C)C)CCCCC2)cc1 | inactive: 17.3% |

| Structure (SMILES) | activity change, negative = cytotoxic |
| --- | --- |
| CN(C)C1(CNC(=O)c2ccccc2[N+](=O)[O-])CCCCC1 | inactive: 13% |
| Cc1ccccc1C(=O)NCC1(N2CCCCC2)CCCCC1 | inactive: -1.26% |
| O=C(NCC1(N2CCCCC2)CCCCC1)c1cccc(Cl)c1 | inactive: -2.38% |
| COc1ccc(Cl)cc1C(=O)NCC1(N(C)C)CCCCC1 | inactive: 6.89% |
| COc1cccc(C(=O)NCC2(N3CCCCC3)CCCCC2)c1 | inactive: 0.0402% |
| COc1ccc(C(=O)NCC2(N(C)C)CCCCC2)cc1Cl | inactive: 6.32% |
| COc1cc(C(=O)NCC2(N(C)C)CCCCC2)c([N+](=O)[O-])cc1OC | inactive: -2.15% |
| CN(C)C1(CNC(=O)c2ccc(Br)cc2)CCCCC1 | inactive: -6.16% |
| CC(C)Oc1ccc(C(=O)NCC2(N(C)C)CCCCC2)cc1 | inactive: 1.35% and inactive: 9.61% |
| CN(C)c1cccc(C(=O)NCC2(N(C)C)CCCCC2)c1 | inactive: -3.45% |
| C=C(C)C#CC(O)(C(=O)OC1CCN(C)CC1)c1ccccc1 (stereo not given) | inactive: 9.04% |
| COc1ccc(Br)c(C(=O)NCC2(N3CCCCC3)CCCCC2)c1 | inactive: -0.885% |
| Cc1cccc(C(=O)NCC2(N(C)C)CCCCC2)c1 | inactive: 1.01% |
| COc1cc(C(=O)NCC2(N(C)C)CCCCC2)cc(OC)c1OC | inactive: -2.58% |
| CC(C)COc1ccc(C(=O)NCC2(N(C)C)CCCCC2)cc1 | inactive: -4.89% |
| COc1cccc(C(=O)NCC2(N3CCOCC3)CCCCC2)c1 | inactive: -0.555% |
| O=C(OC1CN2CCC1CC2)C(CO)(c1ccccc1)c1ccccc1 (stereo not given) | inactive: 2.23% |
